Ki data for two compounds are collected here from ChEMBL document CHEMBL4145597, “BMS-986163, a Negative Allosteric Modulator of GluN2B with Potential Utility in Major Depressive Disorder” (ACS Med Chem Lett, 2018).

Chains of the proteins cited; added tags and fusions are not shown.
UniProt Q00960, whole entry: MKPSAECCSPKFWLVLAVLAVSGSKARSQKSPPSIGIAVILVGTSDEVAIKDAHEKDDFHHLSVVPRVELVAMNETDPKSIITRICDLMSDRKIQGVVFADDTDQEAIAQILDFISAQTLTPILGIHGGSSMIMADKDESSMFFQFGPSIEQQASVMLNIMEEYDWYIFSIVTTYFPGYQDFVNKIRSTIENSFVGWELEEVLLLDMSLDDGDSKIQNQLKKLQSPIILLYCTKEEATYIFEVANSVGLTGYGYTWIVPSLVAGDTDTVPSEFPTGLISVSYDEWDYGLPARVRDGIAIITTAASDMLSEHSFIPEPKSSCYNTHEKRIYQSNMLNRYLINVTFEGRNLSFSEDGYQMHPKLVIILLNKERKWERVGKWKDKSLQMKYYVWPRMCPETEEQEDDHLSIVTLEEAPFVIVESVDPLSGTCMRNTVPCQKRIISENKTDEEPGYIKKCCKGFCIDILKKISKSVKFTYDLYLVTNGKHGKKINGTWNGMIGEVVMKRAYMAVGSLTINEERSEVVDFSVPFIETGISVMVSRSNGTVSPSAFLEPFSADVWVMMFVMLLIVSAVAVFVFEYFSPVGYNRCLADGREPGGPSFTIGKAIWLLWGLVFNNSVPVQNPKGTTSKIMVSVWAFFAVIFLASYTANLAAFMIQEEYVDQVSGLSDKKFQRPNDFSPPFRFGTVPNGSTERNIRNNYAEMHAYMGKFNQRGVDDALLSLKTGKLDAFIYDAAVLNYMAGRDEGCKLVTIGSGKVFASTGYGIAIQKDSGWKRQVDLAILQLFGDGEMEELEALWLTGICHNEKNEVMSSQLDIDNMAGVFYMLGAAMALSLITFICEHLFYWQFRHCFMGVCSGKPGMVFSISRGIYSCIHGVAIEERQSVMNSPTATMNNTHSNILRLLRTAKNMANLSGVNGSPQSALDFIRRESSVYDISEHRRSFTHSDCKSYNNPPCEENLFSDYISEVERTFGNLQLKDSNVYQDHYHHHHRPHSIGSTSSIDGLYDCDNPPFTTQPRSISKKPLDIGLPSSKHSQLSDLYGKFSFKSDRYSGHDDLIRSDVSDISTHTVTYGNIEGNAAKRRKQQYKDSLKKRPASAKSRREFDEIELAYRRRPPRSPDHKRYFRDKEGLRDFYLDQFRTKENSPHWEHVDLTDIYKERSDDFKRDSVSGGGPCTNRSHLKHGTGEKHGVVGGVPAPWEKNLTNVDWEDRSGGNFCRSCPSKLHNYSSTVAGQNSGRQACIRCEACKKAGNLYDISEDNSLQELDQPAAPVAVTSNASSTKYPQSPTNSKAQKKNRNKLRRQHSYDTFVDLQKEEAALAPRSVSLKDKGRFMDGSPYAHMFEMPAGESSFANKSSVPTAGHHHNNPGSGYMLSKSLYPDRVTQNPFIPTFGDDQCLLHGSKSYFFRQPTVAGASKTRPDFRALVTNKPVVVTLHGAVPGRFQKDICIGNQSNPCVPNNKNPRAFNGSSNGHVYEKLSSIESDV

This experiment has as its target Glutamate receptor ionotropic, NMDA 2B (Rattus norvegicus, UniProt Q00960). The experiment is described as follows: Displacement of [3H]Ro 25-6981 from GluN2B receptor in Sprague-Dawley rat forebrain membranes incubated for 1 hr by topcount micro scintillation counting method. Further details: species or system Membrane.

The compound `Cc1ccc(CN2CC[C@@H](N3CC[C@H](c4ccc(O)cc4)[C@@H](F)C3)C2=O)cc1` displayed a Ki of 4.3 nM. Under `Cc1ccc(CN2CC[C@@H](N3CCC(c4ccc(O)cc4)C(F)(F)C3)C2=O)cc1` (some centres not stated) stands 7.7 nM.

Broadly, the Ki is the dissociation constant of the complex between target and ligand, obtained from inhibition or displacement. A higher Ki goes with weaker binding.
